Screening results: PubChem, several laboratories
The list is not random: actives were taken first. Their share in the collection is about 4.2%.
MC4R barr agon – MC4R agonists recruiting beta-arrestin, primary screen, cell-based, luminescence, agonist arm of biased-ligand search | Melanocortin receptor 4 (Homo sapiens), P32245 | U2OS MC4R beta-arrestin complementation; percent of melanotan II response, DMSO zero | activation, % at 8.9 µM | 0.98% of 360,000 active | AID 540308, 2011;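 active means activation above a per-plate cutoff, the mean activation of sample wells on that plate plus 3 SD, cut at about 8% in these data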
NALP1 yeast inh – NALP1 inflammasome inhibitors in reconstituted yeast, colorimetric, S. cerevisiae, triplicate retest. 0.61% of 280,000 active. inhibition, % at 10 µM. S. cerevisiae NALP1/ASC/caspase-1 growth, X-gal OD620, 72 h. AID 2071, 2009; in the data active means inhibition mostly above about 24%, no sharp cut-off; inactive means mostly below about 32%
UUG fidelity – modulators of yeast start codon fidelity, primary screen, whole organism, S. cerevisiae, single point, plate reader | AID 602363, 2012 | S. cerevisiae UUG-firefly luciferase reporter, luminescence/redox ratio | activity score, % at 18.7 µM | hit rate 0.13% among 350,000;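 active = replicate mean at a twofold rise or more, about +100% in these data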;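 also: firefly luciferase made from a UUG start codon reports start codon fidelity; reporter light over untreated wells divided by growth signal over untreated wells; some hits fall short of that in this replicate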
HDAC3 inhib – HDAC3 deacetylase inhibitors, primary screen, biochemical, fluorescence, cell-free homogeneous; inhibition, % at 8.3 µM; recombinant HDAC3, fluorogenic peptide/trypsin coupled; AID 2718, 2010; 0.15% of 320,000 active; Histone deacetylase 3 (Homo sapiens), O15379; in the data active means inhibition above about 26%, passing the limit was not always enough
MC4R antagonist – MC4R antagonists of cAMP signaling, primary screen, cell-based, TR-FRET, antagonist arm of biased-ligand search | MC4R-expressing cells, MTII-stimulated cAMP, LANCE TR-FRET | 0.48% of 360,000 active | Melanocortin receptor 4 (Homo sapiens), P32245 | inhibition, % at 6.5 µM;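 active means inhibition above its plate's cutoff, the mean of tested wells on that plate plus 3 SD, cut at about 29% in these data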
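material = U2OS cells stably expressing human melanocortin 4 receptor (MC4R) | also added = Melanotan II challenge | dosing = single nominal compound dose of 6.5 µM | detection = TR-FRET with Eu-cAMP and labeled anti-cAMP, 671 nm | replication = singlicate | timing = compound 30 min, challenge 1 h, detection 1 h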
ALR H2O2 inh – blocks human ALR sulfhydryl oxidase activity; inhibition, % (concentration not given with the values); purified ALR, DTT oxidation, H2O2 HRP-luminol luminescence; P55789; 3.8% of 290,000 active;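 active = mean and each replicate at 75% or more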;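 also: stock transfer was 7.5 nL into about 7.5 µL; 0% = neutral wells and 100% = wells with inactivated enzyme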
Large screens that a line does not name were inactive.

By UniProt entry, the sequences of proteins in these tests, tags left out.
Melanocortin receptor 4 (Homo sapiens), P32245, UniProt P32245, whole entry, looked up: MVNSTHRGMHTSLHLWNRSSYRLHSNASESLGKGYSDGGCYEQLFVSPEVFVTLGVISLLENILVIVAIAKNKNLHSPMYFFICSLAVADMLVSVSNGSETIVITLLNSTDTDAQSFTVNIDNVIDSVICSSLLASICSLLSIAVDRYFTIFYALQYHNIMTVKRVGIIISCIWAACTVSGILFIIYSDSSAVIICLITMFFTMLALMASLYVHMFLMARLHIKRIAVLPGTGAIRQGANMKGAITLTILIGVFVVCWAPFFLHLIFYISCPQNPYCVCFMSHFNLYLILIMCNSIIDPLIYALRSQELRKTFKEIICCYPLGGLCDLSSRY

CC(C)C(C(=O)Nc1ccc(S(=O)(=O)N2CCOCC2)cc1)N1C(=O)c2ccccc2C1=O (stereo not given)	NALP1 yeast inh 43
CC(C)C(C(=O)Nc1ccccc1)N1C(=O)c2ccccc2C1=O (stereo not given)	none
CN(C)C(=O)C[C@@H]1C=C[C@@H](NC(=O)NC2CCCCC2)[C@H](CO)O1	none (no result: MC4R barr agon, NALP1 yeast inh, HDAC3 inhib, MC4R antagonist, ALR H2O2 inh)
CO[C@H]1CN(C)C(=O)c2ccc(NC(=O)Nc3cccc(Cl)c3)cc2OC[C@H](C)NC[C@@H]1C	none (no result: MC4R barr agon, NALP1 yeast inh, HDAC3 inhib, MC4R antagonist, ALR H2O2 inh)
N#C/C(=C\c1ccc(Cl)cc1)c1nc2ccccc2o1	MC4R barr agon 8.9 (no result: UUG fidelity)
C[C@H]1CN([C@@H](C)CO)C(=O)Cc2cc(NC(=O)CCC(F)(F)F)ccc2O[C@@H]1CN(C)Cc1ccc(Oc2ccccc2)cc1	none (no result: MC4R barr agon, NALP1 yeast inh, HDAC3 inhib, MC4R antagonist, ALR H2O2 inh)
CCCCCC(=O)N(O)C1CC(=O)N(c2ccccc2)C1=O (stereo not given)	HDAC3 inhib 75 (no result: UUG fidelity)
CCCCCCC(=O)N(O)C1CC(=O)N(Cc2ccccc2)C1=O (stereo not given)	NALP1 yeast inh 47, HDAC3 inhib 78
C[C@@H]1CN([C@H](C)CO)S(=O)(=O)c2ccc(C3=CCCCC3)cc2O[C@H]1CN(C)Cc1ccccn1	none (no result: MC4R barr agon, NALP1 yeast inh, HDAC3 inhib, MC4R antagonist, ALR H2O2 inh)
Cc1c(NS(=O)(=O)c2ccccc2)cc(Cl)c(O)c1C	ALR H2O2 inh 99
COc1ccccc1C(=O)Nc1ccc(N2CCN(C(C)=O)CC2)cc1	none (no result: UUG fidelity)
COc1c(C)cccc1C(=O)Nc1ccc(CN2CCCCC2)cc1	ALR H2O2 inh 94
COc1ccccc1C(=O)Nc1ccc(N2CCCCC2)cc1	ALR H2O2 inh 83
O=C(Nc1ccc(N2CCCCCC2)cc1)c1ccc[nH]1	ALR H2O2 inh 99 (no result: NALP1 yeast inh)
COc1ccccc1C#Cc1ccc2c(c1)O[C@@H](CN(C)Cc1ccccc1)[C@@H](C)CN([C@H](C)CO)S2(=O)=O	none (no result: MC4R barr agon, NALP1 yeast inh, HDAC3 inhib, MC4R antagonist, ALR H2O2 inh)
O=C(COc1ccc(OCc2ccccc2)cc1)NN=C1CCCC1	none (no result: UUG fidelity, ALR H2O2 inh)
O=C1CCCCC/C1=N/Nc1ccc(OCc2ccccc2)cc1	ALR H2O2 inh 99
COCCOC(=O)N1C(=O)[C@@]2(c3ccccc31)[C@H](c1ccccc1OCCO)N1[C@H](c3ccccc3)[C@H](c3ccccc3)OC(=O)[C@H]1[C@@H]2C(=O)N1CCN(c2ncccn2)CC1	none (no result: MC4R barr agon, NALP1 yeast inh, HDAC3 inhib, MC4R antagonist, ALR H2O2 inh)
COc1ccc2[nH]c(C)c(CCN3C(=O)C4C5C=CC(C5)C4C3=O)c2c1 (stereo not given)	ALR H2O2 inh 96
COCC(=O)N(Cc1cc2cc(C)ccc2[nH]c1=O)c1cccc(C)c1C	ALR H2O2 inh 82
Cc1noc(C)c1S(=O)(=O)N(C)C[C@@H]1OCCCC[C@H](C)Oc2ccc(NC(=O)Nc3ccc(F)cc3)cc2C(=O)N([C@H](C)CO)C[C@H]1C	none (no result: MC4R barr agon, NALP1 yeast inh, HDAC3 inhib, MC4R antagonist, ALR H2O2 inh)
O=C(CSc1ccc2ccccc2n1)N/N=C/c1ccccc1O	none
CSc1nc(C)cc(SCC(=O)N/N=C/c2ccccc2)n1	none (no result: UUG fidelity)
O=C(CCn1cnc2ccccc21)N/N=C/c1ccc(O)cc1	ALR H2O2 inh 99
Cc1ccc2nc(SCC(=O)N/N=C/c3ccc(C(=O)O)cc3)cc(C)c2c1	ALR H2O2 inh 98
O=C(Cn1cnc2ccccc21)N/N=C/c1cccnc1	none (no result: UUG fidelity)
O=C(Cn1cnc2ccccc21)N/N=C/c1ccccn1	ALR H2O2 inh 99
O=C(CSc1ccc2ccccc2n1)N/N=C/c1ccc(O)cc1	ALR H2O2 inh 99
CC(C)C#Cc1ccc2c(c1)O[C@@H](CN(C)Cc1ccncc1)[C@H](C)CN([C@@H](C)CO)S2(=O)=O	none (no result: MC4R barr agon, NALP1 yeast inh, HDAC3 inhib, MC4R antagonist, ALR H2O2 inh)
C[C@@H]1CN([C@H](C)CO)C(=O)c2cc(-c3ccc(F)cc3)cnc2O[C@H]1CN(C)C(=O)C1CCC1	none (no result: MC4R barr agon, NALP1 yeast inh, HDAC3 inhib, MC4R antagonist, ALR H2O2 inh)
COc1ccc(CNC(=O)C[C@H]2CC[C@H](NC(=O)c3cccc(F)c3)[C@H](CO)O2)cc1	none (no result: MC4R barr agon, NALP1 yeast inh, HDAC3 inhib, MC4R antagonist, ALR H2O2 inh)
CCNC(=O)C[C@H]1CC[C@H]2[C@H](COc3ccc(NC(=O)c4ccccc4Cl)cc3C(=O)N2C)O1	none (no result: MC4R barr agon, NALP1 yeast inh, HDAC3 inhib, MC4R antagonist, ALR H2O2 inh)
O=C(C[C@@H]1CC[C@H]2[C@@H](COC[C@@H](O)CN2C(=O)Nc2ccc(Cl)c(Cl)c2)O1)NCc1ccccc1	none (no result: MC4R barr agon, NALP1 yeast inh, HDAC3 inhib, MC4R antagonist, ALR H2O2 inh)
